The experiment in a line: Activities and properties of the compounds (Table III codes listed as Specific Properties in Table IV). Particulars: higher levels of activity.

For the substance “3-(6-Guanidinoacetoxy-2,5,7,8-tetramethylchroman-2-carbonyl)-3-estrone ester”, the “Specific Properties” value is reported as 19, 27 (possible injection into corpus.

The values above are taken from US7109329B2, “Neurologically active compounds and compounds with multiple activities” (priority 1988, dated 2006).
